Measurements as given in patent US11008325B2, “Inhibitors of cancer invasion, attachment, and/or metastasis” (VIRGINIA COMMONWEALTH UNIVERSITY, priority 2016, dated 2021).

Target: T1, MDA-9 PDZ12 tandem domain (PDZ1) (Homo sapiens, UniProt O00560)
T1 construct: the MDA-9/Syntenin construct used for the screen contains both PDZ domains; made in house
T1 sequence (O00560 110-274): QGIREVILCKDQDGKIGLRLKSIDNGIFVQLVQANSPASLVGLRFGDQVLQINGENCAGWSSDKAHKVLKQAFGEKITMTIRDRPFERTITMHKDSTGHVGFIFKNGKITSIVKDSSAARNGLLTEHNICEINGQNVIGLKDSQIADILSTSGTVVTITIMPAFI
Assay: NMR [15N,1H] HSQC chemical shift change and titration binding
Protocol: FIGS. 4A-4E. FIG. 4A. Chemical structures of the two initial fragment hits (top) and the structure of the resulting molecule 113B7 (PDZ1i). FIG. 4B. Superposition of 2D [^15N, ^1H]-HSQC spectra of 50 μM MDA-9 PDZ12 tandem domain in the absence and presence of 350 μM 113B7. FIG. 4C. Binding curve and representative spectra for the titration of 113B7 against MDA-9 PDZ12 tandem domain. Top: Zoom of box region in FIG. 4B after titrating 113B7 into Mda9 PDZ, tandem domain. The cross peak corresponding to the backbone amide of residue A147 experiences a gradual shift upon the addition of 113B7. Bottom: Titration curve of 113B7 for residue A147. The dissociation constant for the binding of 113B7 to MDA-9 was calculated to be 21.37±8.62 μM. FIG. 4D. Superposition of 2D [^15N, ^1H]-HSQC spectra of 50 μM PDZ domain from X11/mint scaffold protein ([…]; 33% identity with PDZ1) are shown in absence and in presence of […] 113B7. […] FIG. 4E. Docked structure of 113B7 in complex with MDA-9 PDZ tandem domain (PDB: 1W9E). The pose was obtained with GOLD. Two PDZ domains of MDA-9 are labeled.
A small molecule targeting MDA-9/Syntenin inhibits invasion and radiosensitizes GBM. […] FBDD is an important technique that has been used with success in efforts to develop small molecule inhibitors of challenging drug targets including those involved in protein-protein interactions. […]

O=C(Nc1cc(Cl)c(O)c(Cl)c1)c1nc2[nH]c3c(c(=O)n2n1)CCC3 [112F11] was tested. Which Kd did it give?
The Kd was 71.8 µM.
